# Compounds with a hit are over-represented: about 4.2% of the library has one in this group of screens.
# UUG fidelity: modulators of yeast start codon fidelity, primary screen, whole organism, S. cerevisiae, single point, plate reader. S. cerevisiae UUG-firefly luciferase reporter, luminescence/redox ratio. activity score, % at 18.7 µM. hit rate 0.13% among 350,000;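 active = replicate mean at a twofold rise or more, about +100% in these data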;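 also: firefly luciferase made from a UUG start codon reports start codon fidelity; reporter light over untreated wells divided by growth signal over untreated wells; some hits fall short of that in this replicate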
# HDAC3 inh: blocks human histone deacetylase 3. O15379. recombinant HDAC3, fluorogenic peptide/trypsin coupled, fluorescence. inhibition, % at 8.3 µM. hit rate 0.15% among 320,000. AID 2718; in the data active means inhibition above about 26%, passing the limit was not always enough
# ALR inh: inhibitors of human ALR sulfhydryl oxidase, primary screen, biochemical, H2O2 detection, HRP-luminol luminescence, single point | AID 485317, 2010 | inhibition, % (test concentration not listed) | purified ALR, DTT oxidation | FAD-linked sulfhydryl oxidase ALR (Homo sapiens), P55789 | hit rate 3.8% among 290,000;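 active = mean and each replicate at 75% or more; inconclusive = only one of the two met; inactive = neither met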;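 also: stock transfer was 7.5 nL into about 7.5 µL; 0% = neutral wells and 100% = wells with inactivated enzyme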
# NALP1 yeast inh: inhibitors of NALP1 inflammasome in yeast. AID 2071. hit rate 0.61% among 280,000. S. cerevisiae NALP1/ASC/caspase-1 growth, X-gal OD620, 72 h. inhibition, % at 10 µM; in the data active means inhibition mostly above about 24%, no sharp cut-off; inactive means mostly below about 32%
# MC4R antagonist: antagonists of human melanocortin 4 receptor (MC4R); AID 540295; MC4R-expressing cells, MTII-stimulated cAMP, LANCE TR-FRET; P32245; hit rate 0.48% among 360,000; inhibition, % at 6.5 µM;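 active means inhibition above its plate's cutoff, the mean of tested wells on that plate plus 3 SD, cut at about 29% in these data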;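 further: 0% = Melanotan II alone and 100% = Melanotan II plus saturating MCL0020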
#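 System: U2OS-MC4R stable cell line; Technique: Eu-cAMP/anti-cAMP TR-FRET, emission 671 nm; Repeats: single well per compound; Also added: Melanotan II; Dosing: one concentration, 6.5 µM nominal; Schedule: 30-min compound, 1-h challenge, 1-h detection, room temperature.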
# MC4R ag barr: human MC4R agonism via beta-arrestin | P32245 | U2OS MC4R beta-arrestin complementation, luminescence; percent of melanotan II response, DMSO zero | activation, % at 8.9 µM | hit rate 0.98% among 360,000;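 active means activation above a per-plate cutoff, the mean activation of sample wells on that plate plus 3 SD, cut at about 8% in these data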
# An asterisk follows results filed as active; . = not tested or not shown.
item	canonical_smiles	MC4R ag barr	MC4R antagonist	NALP1 yeast inh
1	Cc1ccc(NC2CCCN(C(=O)c3cccc(-c4ncc[nH]4)c3)C2)cc1C (stereo not given)	-1	2	10
2	Cc1ccc(NC2CCCN(C(=O)c3ccccc3-c3ncc[nH]3)C2)cc1C (stereo not given)	-2	4	8
3	Cc1ccc(OCCNC(=O)c2cncc(Br)c2)cc1C	-1	8	-5
4	Cc1cccc(OCCNC(=S)NC(=O)c2cncc(Br)c2)c1	9.3*	0	5
5	COc1cccc(CNC(=O)C[C@H]2C=C[C@@H](NC(C)=O)[C@H](CO)O2)c1	.	.	.
6	CC1(C)CC(=O)C(C(N)=NC(=O)c2ccc([N+](=O)[O-])cc2)=C(O)C1	-2	-1	-4
7	CCc1nc(N[C@@H](Cc2c[nH]c3ccccc23)C(=O)O)c2oc3ccccc3c2n1	-2	6	3
8	COc1ccccc1NS(=O)(=O)c1ccc2[nH]c(=O)[nH]c2c1	-1	3	17
9	O=c1[nH]c2ccc(S(=O)(=O)Nc3ccccc3O)cc2[nH]1	-1	0	2
10	O=c1nc2n(c3sc4c(c13)CCCC4)C(CBr)CS2 (stereo not given)	-1	0	-5
11	O=c1c2ccccc2nc2n1C(CBr)CS2 (stereo not given)	-3	8	10
12	O=S(=O)(c1ccccc1)N1CCCCN2[C@H](C1)[C@H](c1ccc(-c3cncnc3)cc1)[C@@H]2CO	.	.	.

item	UUG fidelity	HDAC3 inh	ALR inh
1	8	6	97*
2	-22	.	99*
3	.	-2	-1
4	-12	1	1
5	-12	.	.
6	.	0	89*
7	3	1	89*
8	8	0	-8
9	-16	3	93*
10	-14	6	86*
11	.	5	2
12	4	.	.

# Next section, starting with the last 2 of the part before.
item	canonical_smiles	MC4R ag barr	MC4R antagonist	NALP1 yeast inh
11	O=c1c2ccccc2nc2n1C(CBr)CS2 (stereo not given)	-3	8	10
12	O=S(=O)(c1ccccc1)N1CCCCN2[C@H](C1)[C@H](c1ccc(-c3cncnc3)cc1)[C@@H]2CO	.	.	.
13	CC(c1n[nH]c(=S)n1-c1ccc(F)cc1)N1CCCCC1 (stereo not given)	-2	14	-33
14	O=C(Nc1ccc(Cl)cc1)Nc1ccc(Cl)c(Cl)c1	.	.	.
15	N#Cc1ccc(NC(=O)Nc2ccc(Cl)cc2)cc1	2	7	71*
16	OC[C@@H]1[C@H](c2ccc(C3=CCCC3)cc2)[C@H]2CN(CCC(F)(F)F)CCCCN12	.	.	.
17	Cc1cccc(NCC(=O)N/N=C/c2ccc(Br)cc2)c1	8.4*	0	26
18	O=C(c1ccc2c(c1)OCO2)N1CCN(c2cccc(C(F)(F)F)c2)CC1	1	-4	2
19	O=C(c1ccc(F)cc1)N1CCOCC1	-1	9	26*
20	O=C(c1ccc(NS(=O)(=O)c2ccc(F)cc2)cc1)N1CCOCC1	-3	-1	.
21	O=C(Nc1ccc(F)cc1)c1ccc(C(=O)N2CCOCC2)cc1	-1	-1	.
22	O=C(c1ccc2c(c1)OCO2)N1CCN(c2ccc(F)cc2)CC1	0	1	-10
23	C[C@H]1CN([C@@H](C)CO)C(=O)Cc2cc(NC(=O)Nc3ccc(F)cc3)ccc2O[C@@H]1CN(C)Cc1ccc2c(c1)OCO2	.	.	.
24	CC1CCCN(c2nc3ccccc3nc2C(C#N)S(=O)(=O)c2cccs2)C1 (stereo not given)	3	2	24

item	UUG fidelity	HDAC3 inh	ALR inh
11	.	5	2
12	4	.	.
13	6	11	91*
14	.	7	0
15	-8	0	-4
16	20	.	.
17	.	3	-6
18	-4	10	.
19	-9	-1	5
20	-4	5	-6
21	-6	-8	99*
22	-1	0	97*
23	-2	.	.
24	-8	-6	97*

# (more compounds)
item	canonical_smiles	MC4R ag barr	MC4R antagonist	NALP1 yeast inh
25	Cc1cc(N2CCOCC2)n2ncc(-c3ccc(Cl)cc3)c2n1	1	9	-10
26	Cc1ccc(-c2cnn3c(N4CCOCC4)cc(C)nc23)cc1	-1	-4	-9
27	CCN(Cc1ccccc1)C(=O)c1cc2c(=O)oc3ccc(C)cc3c2s1	0	7	42*
28	O=C(NCCCN1CCOCC1)c1ccc2c(c1)N(Cc1ccccc1)C(=O)c1ccccc1S2	-2	4	2
29	O=C(NCC1CCCO1)c1ccc2c(c1)N(Cc1ccccc1)CCS2 (stereo not given)	-3	10	7

item	UUG fidelity	HDAC3 inh	ALR inh
25	-22	-4	-2
26	-23	-11	93*
27	-14	-2	0
28	-10	1	1
29	13	-39	99*
